Only a part is listed here, and it is no random draw. Some of these compounds have results that are not shown, active ones among them. Calls of active or inactive are those of the source.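 The calls were made as follows: active = visual image review flags a hit and inhibition of aggregation exceeds 20%; inconclusive = visual hit but inhibition at or below 20%; inactive = no hit on visual image review.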

A short description of the assay: inhibitors of mutant huntingtin aggregation, primary screen, imaging, exon1htt(103Q)mCFP cells, high-content imaging (AID 483).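 Also: compound exposure lasted 3 days before fixation.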 Particulars: exon1htt(103Q)mCFP cell line, aggregate imaging; at 2 µM; stronger effect = higher value.
On to `O=C(OC1CN2CCC1CC2)C(CO)(c1ccccc1)c1ccccc1` (stereo unspecified), for which the inhibition of aggregation was inactive: -7.7%.

The values above are taken from PubChem BioAssay AID483 (Columbia University Molecular Screening Center, 2006).
